Assay results published in patent US7897758B2, “Activators for oligonucleotide and phosphoramidite synthesis” (dated 2011).

Experiments:
[1] = Explosion hazards, method A.14 of directive 92/69/EEC (thermal sensitivity, shock, friction); conditions: steel tube test, Fallhammertest, GLP laboratory, BAM
[2] = background statement; cited from earlier work

SMILES: FC(F)(F)c1cc(-c2nn[nH]n2)cc(C(F)(F)F)c1
- explosion hazards: thermal sensitivity, mechanical sensitivity to shock and to friction [1]: neither thermally nor mechanically sensitive

SMILES: CCSc1nnn[nH]1
- classification as explosive in Germany [2]: Category C explosive
